Target: recombinant human PTP1B (Homo sapiens, UniProt P18031)
Experiment: Inhibiting phosphotyrosine phosphatase 1B (PTP1B), in-vitro phosphatase assay
Assay type: biochemical
Conditions: Table 2 Biological activity; substrate variant (phosphopeptide, p-nitrophenyl phosphate or DIFMUP) not stated
Source text: Inhibiting Phosphotyrosine Phosphatase 1B (PTP1B)
The setting up and implementation of an in-vitro assay for detecting a phosphatase-inhibiting effect of the compounds according to the invention are described below. The isolation of the enzyme preparation and the implementation of the assay are described. […]
This assay is based on releasing phosphate from a consensus substrate peptide which is detected in the nanomolar concentration range using the malachite green/ammonium molybdate method (Lanzetta, P. A., Alvarez, L. J., Reinach, P. S., Candia, O. A. Anal Biochem. 100: 95-97, 1979) as adapted for the microtiter plate format. […] After incubating at 22° C. for 30 min, in order to develop the color, the absorption at 650 nm was determined using a microtiter plate reader (Molecular Devices). Samples and blanks were measured in triplicate. The PTP1B activity was calculated as nanomoles of phosphate released per min and mg of protein using potassium phosphate as the standard. The inhibition of the recombinant hPTP1B by test substances was calculated as percentages of the phosphatase control. […]

By UniProt entry, the sequences of proteins in these tests, tags left out. Residues count along the entry.
UniProt P18031, 1-299 limits assumed: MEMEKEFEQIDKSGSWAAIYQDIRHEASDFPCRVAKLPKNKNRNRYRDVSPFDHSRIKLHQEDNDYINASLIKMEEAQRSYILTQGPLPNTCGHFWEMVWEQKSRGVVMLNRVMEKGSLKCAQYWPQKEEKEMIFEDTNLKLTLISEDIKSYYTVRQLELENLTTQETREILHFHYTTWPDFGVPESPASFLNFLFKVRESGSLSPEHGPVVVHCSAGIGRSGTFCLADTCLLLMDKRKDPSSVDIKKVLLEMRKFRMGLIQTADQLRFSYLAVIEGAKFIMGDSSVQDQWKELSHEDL

Question: Which IC50 does the source give for CCCc1ccc(-c2nc3c(=O)n(C)c(=O)nc-3n(CC)n2)cc1 here?
Answer: 750 nM

Question: How did the IC50 turn out when CCn1nc(-c2ccccc2)nc2c(=O)n(C)c(=O)nc1-2 [2] was run?
Answer: 380 nM
